Values of other authors, collected in patent US20060160897A1, “Topical Use of Valproic Acid for the Prevention or Treatment of Skin Disorders” (priority 2003, published 2006).

Conditions: metastatic renal cell carcinoma, 60/329 patients; cited from earlier work

Substance: interleukin 2: cytokine secreted by activated T cells, used in therapy of melanoma and renal cell carcinoma
- patients with antithyroid antibodies detected: 18%
